Several values for one entry are separate records, joined by “and”; a condition that tells them apart may be missing. Identical values can stand only once. The entries are a selection whose mix differs from that of the whole data set. Activity calls are given as the source filed them. Calls come from the whole dose curve; as a rule, active = well fitted inhibition curve with a large enough effect; inconclusive = small, poorly fitted or top-dose-only effect; inactive = no such curve, though single readings can be large or run the other way.
Test: qHTS Assay for Identifying the Cell-Membrane Permeable IMPase Inhibitors: Potentiation with Lithium;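 note: IP1 builds up when IMPase is blocked and the TR-FRET signal falls; plate controls were basal vehicle for no effect and high inhibitor control for full effect; nearly all actives have a fitted effect of over 50% in size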
Conditions: CHO-M1 cells, IP1 TR-FRET (IP-One), carbachol + lithium; at 59.4 µM (top of the series)

SMILES	activity, negative = IMPase inhibition
O=[N+]([O-])C(Cl)(Cl)Cl	inactive: 6.25%
CN(CCCl)CCCl	inactive: 18.1% and inactive: 12.9%
